# Values of other authors in patent publication US12162877B2, “Human dihydroorotate dehydrogenase (hDHODH) inhibitors and their use in targeting oncological diseases sensitive to pyrimidine starvation” (DRUG DISCOVERY AND CLINIC S.R.L., priority 2018, dated 2024).
# Sequences of proteins named here, by UniProt entry; tags and fusion partners are left off. Residues count along the entry.
# UniProt Q02127, 31-395 limits assumed: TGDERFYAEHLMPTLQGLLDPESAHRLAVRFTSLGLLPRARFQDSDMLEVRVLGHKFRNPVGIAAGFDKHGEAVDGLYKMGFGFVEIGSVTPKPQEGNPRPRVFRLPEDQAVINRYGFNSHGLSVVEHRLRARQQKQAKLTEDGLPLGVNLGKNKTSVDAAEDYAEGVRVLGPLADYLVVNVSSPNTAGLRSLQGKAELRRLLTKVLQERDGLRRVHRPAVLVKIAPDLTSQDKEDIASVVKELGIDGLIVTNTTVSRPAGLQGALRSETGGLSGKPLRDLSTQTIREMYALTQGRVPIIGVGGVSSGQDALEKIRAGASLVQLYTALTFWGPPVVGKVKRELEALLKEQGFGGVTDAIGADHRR
# Biological target: recombinant hDHODH (Homo sapiens (Human), UniProt Q02127)
# Settings: read-out: hDHODH IC50; earlier series of the inventors (refs 17, 23); cited from earlier work
structure (smiles),measurement,value
O=C(Nc1c(F)c(F)c(-c2ccccc2)c(F)c1F)c1nsnc1O,IC50,16 nM
